SMILES strings stand for the structures. Bounds are passed on as bounds.

Sequences of proteins named here, by UniProt entry; tags and fusion partners are left off.
UniProt Q8NI77, whole entry: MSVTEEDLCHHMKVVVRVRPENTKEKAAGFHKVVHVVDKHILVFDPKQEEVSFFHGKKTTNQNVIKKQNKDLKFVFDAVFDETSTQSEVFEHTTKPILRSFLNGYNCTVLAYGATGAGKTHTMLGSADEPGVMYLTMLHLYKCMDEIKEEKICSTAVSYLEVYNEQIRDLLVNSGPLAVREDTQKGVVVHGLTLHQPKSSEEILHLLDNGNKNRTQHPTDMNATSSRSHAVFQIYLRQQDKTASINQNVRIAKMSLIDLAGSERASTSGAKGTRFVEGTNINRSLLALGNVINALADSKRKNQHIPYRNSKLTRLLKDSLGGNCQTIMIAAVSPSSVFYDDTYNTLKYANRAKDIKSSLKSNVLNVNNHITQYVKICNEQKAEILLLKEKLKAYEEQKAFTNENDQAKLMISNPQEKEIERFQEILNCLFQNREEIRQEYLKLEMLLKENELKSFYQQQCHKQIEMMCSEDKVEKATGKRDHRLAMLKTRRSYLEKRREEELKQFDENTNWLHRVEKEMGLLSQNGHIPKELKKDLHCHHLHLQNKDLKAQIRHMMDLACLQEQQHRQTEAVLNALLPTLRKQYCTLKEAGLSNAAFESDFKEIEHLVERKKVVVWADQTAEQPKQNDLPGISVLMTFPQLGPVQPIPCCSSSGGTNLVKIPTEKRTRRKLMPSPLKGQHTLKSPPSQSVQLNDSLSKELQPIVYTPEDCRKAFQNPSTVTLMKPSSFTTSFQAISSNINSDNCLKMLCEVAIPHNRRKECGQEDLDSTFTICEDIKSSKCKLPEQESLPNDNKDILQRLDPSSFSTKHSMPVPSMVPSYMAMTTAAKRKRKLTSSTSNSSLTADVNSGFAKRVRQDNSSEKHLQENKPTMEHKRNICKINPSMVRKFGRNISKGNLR
UniProt P02550, whole entry partner: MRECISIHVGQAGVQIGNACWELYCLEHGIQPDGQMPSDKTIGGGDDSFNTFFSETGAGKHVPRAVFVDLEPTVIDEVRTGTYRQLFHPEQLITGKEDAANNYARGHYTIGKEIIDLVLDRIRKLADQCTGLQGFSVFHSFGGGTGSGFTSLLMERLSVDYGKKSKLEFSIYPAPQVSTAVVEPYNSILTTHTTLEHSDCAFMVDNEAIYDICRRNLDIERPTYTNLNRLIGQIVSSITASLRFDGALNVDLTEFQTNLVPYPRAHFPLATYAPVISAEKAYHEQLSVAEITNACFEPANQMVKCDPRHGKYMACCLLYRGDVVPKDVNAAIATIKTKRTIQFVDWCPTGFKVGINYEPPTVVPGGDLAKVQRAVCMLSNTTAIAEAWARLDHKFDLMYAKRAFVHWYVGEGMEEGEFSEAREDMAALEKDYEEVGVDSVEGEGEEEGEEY
UniProt P02554, whole entry partner: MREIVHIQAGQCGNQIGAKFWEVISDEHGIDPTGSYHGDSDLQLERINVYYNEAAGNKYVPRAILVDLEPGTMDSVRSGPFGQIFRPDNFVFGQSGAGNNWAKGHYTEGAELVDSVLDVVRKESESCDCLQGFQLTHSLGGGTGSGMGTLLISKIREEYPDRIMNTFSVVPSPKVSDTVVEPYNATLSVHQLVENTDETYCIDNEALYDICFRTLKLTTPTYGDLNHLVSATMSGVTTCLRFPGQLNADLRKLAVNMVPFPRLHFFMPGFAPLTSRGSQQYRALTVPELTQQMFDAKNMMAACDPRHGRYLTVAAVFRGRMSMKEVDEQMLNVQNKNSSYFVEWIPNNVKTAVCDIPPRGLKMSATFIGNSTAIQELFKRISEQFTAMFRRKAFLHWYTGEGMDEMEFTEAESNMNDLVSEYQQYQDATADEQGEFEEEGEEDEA

One experiment concerns the target KIF18A (Homo sapiens (Human), UniProt Q8NI77). In words: KIF18A ATPase activity under tubulin stimulation (ADP-Glo assay). As to conditions: read-out: ADP-Glo IC50; KIF18A 30 nM, ATP 150 μM, pig microtubules. On the procedure:
This experiment assesses the inhibitory effect of the compounds of the present disclosure on the KIF18A target according to the IC50 values by measuring the KIF18A ATPase activity under tubulin stimulation with the presence of the compounds.
• 1. Preparation of 30 mL of reaction buffer: • (1) 450 μL 1M Tris-HCl (pH=7.5)+300 μL 1M MgCl2+30 μL 10% Pluronic F-68 (ThermoFisher, 24040032-100 ml); • (2) adjusting pH to 7.5, and adding water to adjust the volume to 30 mL. • 2. Preparation of a 5 mg/mL pig microtubule (Microtubules; MT) (Cytoskeleton Inc, MT002) stock solution: • (1) 10 mL PM buffer=150 μL 1 M PIPES (pH 7.0)+20 μL 0.5 mM MgCl2+100 μL 2 mM Taxol (Cytoskeleton Inc, TXD01)+9730 μL water. • (2) MT ([…]): Adding 100 μL PM buffer to prepare a 5 mg/mL stock solution. Keeping the MT (Cytoskeleton Inc, MT002) at room temperature for 10-15 minutes, gently mixing and storing same at −80° C. • 3. Preparation of 2 mL of kinase buffer: 2 mL reaction buffer+1 μL 2 mM Taxol (Cytoskeleton Inc, TXD01)+12 μL 5 mg/mL MT (Cytoskeleton Inc, MT002). • 4. Preparation of 2×KIF18A (30 nM) (ChemPartner, CPB-P22-31645) working solution: 2.4 μL 10 μM KIF18A (ChemPartner, CPB-P22-31645)+800 μL 1× kinase buffer. • 5. […] Luminescence values were measured using the EnVision Xcite Multilabel Reader (PerkinElmer, 2105-0020).

In a further experiment the test system is OVCAR-3 cells. In words: OVCAR-3 cell proliferation (Cell Titer-Glo, 10 days). As to conditions: read-out: OVCAR-3 IC50. As for the experimental part:
The inhibitory effect on the KIF18A target by the compounds of the present disclosure was evaluated by testing the inhibitory effect on proliferation of OVCAR-3 cells by the compounds of the present disclosure.
The following method was used to determine the effect of the compounds of the present disclosure on the proliferation of human ovarian cancer cells Ovcar-3 (HTB-161, ATCC). Cells were cultured in RPMI-1640 complete medium containing 20% fetal bovine serum, 0.01 mg/mL bovine insulin, 100 U penicillin, and 100 μg/mL streptomycin. The Promega kit Cell Titer-Glo (Cat. No. G7572) was used in this method for test.
For specific steps, reference was made to the kit instructions, and the procedure was outlined below: Test compounds were dissolved in DMSO to prepare a 10 mM stock solution, which was diluted at the predetermined test concentrations, and the test compounds at different concentrations were added to a 384-well cell test plate using ECHO. […] The luminescence values for samples in various wells were read using a microplate reader in Luminescence mode.
The percentage of inhibition of cell proliferation by the test compound at each concentration was calculated by comparing with the values of the control group (0.1% DMSO). […]

For the compound `CC1OCCn2c1cc1c(NC(=O)c3ccc(NS(=O)(=O)CCO)cc3N3CCC(=C(F)F)CC3)cccc12` (single isomer, unassigned) [320-P1], the IC50 at KIF18A lay within 500 to 5000 nM.

Regarding `CC1OCCn2c1cc1c(NC(=O)c3ccc(NS(=O)(=O)CCO)cc3N3CCC(=C(F)F)CC3)cccc12` (single isomer, unassigned) [320-P2], the IC50 in the experiment on OVCAR-3 cells and on KIF18A was under 50 nM throughout.
